Test: inactivation by the liver

## L-leucyl-L-glutamyl-L-glutamyl-L-glutamyl-L-glutamyl-L-glutamyl-L-ananyl-L-tyrosyl-glycyl-L-tryptophyl-L-leucyl-L-asparagyl-L-phenylalanineamide [11-leucine-minigastrin]
  inactivation by the liver: only slowly inactivated

From patent US4117117A, “Tridecapetide having gastrin effect” (Max Planck-Gesellschaft zur Forderung der Wissenschaften, priority 1976, dated 1978)
